Source: patent publication US8039490B2, “Benzoyl-piperidine derivatives as dual modulators of the 5-HT2A and D3 receptors” (Hoffmann-La Roche Inc., priority 2006, dated 2011)

Chains of the proteins cited; added tags and fusions are not shown.
UniProt P35462, whole entry: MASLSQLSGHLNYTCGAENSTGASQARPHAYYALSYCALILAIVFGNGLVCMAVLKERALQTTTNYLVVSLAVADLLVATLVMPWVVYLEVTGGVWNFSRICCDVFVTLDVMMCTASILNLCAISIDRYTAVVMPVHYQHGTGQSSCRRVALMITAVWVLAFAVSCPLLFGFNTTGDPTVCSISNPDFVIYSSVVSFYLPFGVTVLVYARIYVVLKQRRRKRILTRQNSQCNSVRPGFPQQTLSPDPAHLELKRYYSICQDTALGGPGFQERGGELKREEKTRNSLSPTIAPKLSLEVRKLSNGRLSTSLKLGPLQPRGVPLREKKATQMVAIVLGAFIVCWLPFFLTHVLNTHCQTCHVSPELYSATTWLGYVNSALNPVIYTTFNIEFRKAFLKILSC
UniProt P14416, whole entry: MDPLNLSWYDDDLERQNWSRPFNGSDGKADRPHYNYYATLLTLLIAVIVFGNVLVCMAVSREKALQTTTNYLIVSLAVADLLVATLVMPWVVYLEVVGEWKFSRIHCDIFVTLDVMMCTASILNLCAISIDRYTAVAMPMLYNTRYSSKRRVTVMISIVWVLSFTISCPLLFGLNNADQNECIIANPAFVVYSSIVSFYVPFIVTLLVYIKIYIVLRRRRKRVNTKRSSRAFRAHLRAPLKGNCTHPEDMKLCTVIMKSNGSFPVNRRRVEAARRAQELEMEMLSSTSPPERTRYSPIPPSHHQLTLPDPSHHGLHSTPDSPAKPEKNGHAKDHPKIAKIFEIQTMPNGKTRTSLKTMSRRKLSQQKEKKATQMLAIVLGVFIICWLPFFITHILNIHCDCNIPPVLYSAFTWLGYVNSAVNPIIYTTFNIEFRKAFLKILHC
UniProt P28223, whole entry: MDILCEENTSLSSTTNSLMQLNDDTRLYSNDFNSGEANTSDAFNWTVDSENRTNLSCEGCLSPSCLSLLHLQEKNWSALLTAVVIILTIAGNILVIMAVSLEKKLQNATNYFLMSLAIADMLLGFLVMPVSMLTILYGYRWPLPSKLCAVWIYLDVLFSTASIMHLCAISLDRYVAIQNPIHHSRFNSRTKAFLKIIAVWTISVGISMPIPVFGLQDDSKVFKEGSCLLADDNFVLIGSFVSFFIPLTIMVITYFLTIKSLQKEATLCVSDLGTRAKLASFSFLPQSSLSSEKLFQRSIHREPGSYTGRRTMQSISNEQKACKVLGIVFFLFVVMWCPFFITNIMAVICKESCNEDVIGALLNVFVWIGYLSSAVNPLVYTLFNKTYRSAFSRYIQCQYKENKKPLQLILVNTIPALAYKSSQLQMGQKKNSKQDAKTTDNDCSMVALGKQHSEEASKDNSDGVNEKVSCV

Key:
[1] = biological target: human D3 dopamine receptor (Homo sapiens, UniProt P35462); test: Radioligand binding, human D3 receptor ([3H]-spiperone); conditions: read-out: Ki(nM) D3/5HT2A/D2: D3; first value of the cell; membranes of transfected HEK-293 EBNA cells, 0.5 nM [3H]-spiperone
[2] = biological target: human D2 dopamine receptor (Homo sapiens, UniProt P14416); test: Radioligand binding, human D2 receptor ([3H]-spiperone); conditions: read-out: Ki(nM) D3/5HT2A/D2: D2; third value of the cell; membranes of transfected HEK-293 EBNA cells, 0.7 nM [3H]-spiperone
[3] = biological target: human 5-HT2A serotonin receptor (Homo sapiens, UniProt P28223); test: Radioligand binding, human 5-HT2A receptor ([3H]-ketanserin); conditions: read-out: Ki(nM) D3/5HT2A/D2: 5HT2A; second value of the cell; membranes of transfected HEK-293 EBNA cells, 1.1 nM [3H]-ketanserin

Ki [1]: 71 nM | Ki [2]: 1450 nM | Ki [3]: 38 nM
Structure (SMILES): O=C(N[C@H]1CC[C@H](CCN2CCC(C(=O)c3ccc(F)c(F)c3)CC2)CC1)C1CCOCC1 (relative stereo)
